Molecular target: Serotonin 3 receptor (5HT3) (Mus musculus) (UniProt Q9JHJ5+P23979)
Test: Binding affinity towards 5-hydroxytryptamine 3 receptor was determined by using [3H]-ICS 205-930 as radioligand in mouse N1E 115 cells
Assay type: cell-based

Protein sequences, listed by entry. Tags and fused reporters are not part of them. Lines headed by an entry give the natural chain unless they say otherwise; changes in a name come on top.
UniProt Q9JHJ5: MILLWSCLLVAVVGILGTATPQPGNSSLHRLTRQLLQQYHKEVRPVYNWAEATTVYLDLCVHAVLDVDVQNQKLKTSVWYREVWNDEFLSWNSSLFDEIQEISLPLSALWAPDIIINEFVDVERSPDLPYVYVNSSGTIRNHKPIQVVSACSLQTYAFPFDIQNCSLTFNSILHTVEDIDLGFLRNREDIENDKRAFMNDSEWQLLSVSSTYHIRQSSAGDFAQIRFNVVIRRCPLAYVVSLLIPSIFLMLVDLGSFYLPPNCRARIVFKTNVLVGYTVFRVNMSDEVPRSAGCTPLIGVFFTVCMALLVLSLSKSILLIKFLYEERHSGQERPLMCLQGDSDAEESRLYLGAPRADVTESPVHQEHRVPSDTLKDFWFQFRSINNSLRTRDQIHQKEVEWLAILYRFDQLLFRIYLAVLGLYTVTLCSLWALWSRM
UniProt P23979, whole entry, looked up: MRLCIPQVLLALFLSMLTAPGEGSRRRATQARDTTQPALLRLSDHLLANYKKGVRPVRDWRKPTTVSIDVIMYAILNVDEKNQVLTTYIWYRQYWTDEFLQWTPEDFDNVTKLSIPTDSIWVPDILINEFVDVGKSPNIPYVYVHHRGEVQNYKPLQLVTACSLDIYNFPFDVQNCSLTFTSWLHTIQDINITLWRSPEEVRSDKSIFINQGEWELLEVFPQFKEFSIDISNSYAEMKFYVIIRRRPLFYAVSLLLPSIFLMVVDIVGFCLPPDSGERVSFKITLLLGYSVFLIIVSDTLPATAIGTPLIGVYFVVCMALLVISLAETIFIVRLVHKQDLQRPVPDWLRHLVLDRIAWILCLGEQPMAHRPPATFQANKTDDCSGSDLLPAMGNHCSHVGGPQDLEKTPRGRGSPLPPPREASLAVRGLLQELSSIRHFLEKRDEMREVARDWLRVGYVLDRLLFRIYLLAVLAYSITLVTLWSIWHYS

pKD: 8.5
SMILES: COc1cc(N)c(Cl)cc1C(=O)N[C@H]1CCN2CCC[C@@H]1C2
